## scFv variants of Ab-91 (heavy chain) against a SARS-CoV-2 spike peptide

Target: peptide PDVDLGDISGINAS, taken from heptad repeat 2 (HR2) of SARS-CoV-2 spike.

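Library AAYL51 holds single substitutions and randomly drawn double and triple substitutions in the CDRs. In AlphaSeq, yeast of one mating type display the scFv and yeast of the other type display the target. Pairs that bind mate more often; barcode pairs of the diploids are counted by sequencing. Scores were corrected for input abundance and mapped to Kd with protein pairs of known affinity run in the same pool. Mating was done three times.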

The variants keep the light chain, the linker and the frameworks of Ab-91 (scFv order VL, a (GGGGS)3 linker, VH).
VL: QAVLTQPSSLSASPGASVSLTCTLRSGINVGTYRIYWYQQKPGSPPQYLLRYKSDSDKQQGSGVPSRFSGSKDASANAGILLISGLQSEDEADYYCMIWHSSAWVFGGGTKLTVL
VH: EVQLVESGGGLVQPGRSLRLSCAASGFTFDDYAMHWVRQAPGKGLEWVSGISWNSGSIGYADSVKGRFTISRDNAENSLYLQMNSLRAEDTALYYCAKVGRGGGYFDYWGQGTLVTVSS

Each variant is given by its three heavy chain CDRs, as the data file delimits them; those of the parent are GFTFDDYAMH, GISWNSGSIGYADSVK, VGRGGGYFDY.
Scale: log10 of Kd in nM, estimated from mating counts; low values are strong binders.
Averages over replicates are reported, and they cover detected replicates only.
"nd" means that the variant was in the library but no mating with the target was seen in any replicate; the authors take this as a sign of poor binding, and no number exists.
For reference, the parent read 1.86 as the reference entry and 0.88 as a member of this library.

GQTFDDYAMH, GISWNSGSIGYLDSVK, VGRGGNYFDY: nd (0 of 3 replicates).
GFTFDDYAMH, GISWNSGSIGYAPSPK, VQRGGGYFDY: nd (0 of 3 replicates).
GFTFKDYAMH, GISWNSGSWGYADSVK, VGRGGTYFDY: 3.55 (1 of 3 replicates).
GETFDDYAMH, GTSWNSGSYGYADSVK, VGRGGGYFDY: nd (0 of 3 replicates).
GFTFDDYADH, GISWNSGSIVYADSVK, VHRGGGYFDY: nd (0 of 3 replicates).
GFKFDDYAMH, GISWNSGSIGYADHVK, VGRGGGYFDY: 0.72 (3 of 3 replicates).
GFTFDDYAMH, GISWNSGSIGYAPSVK, WGRVGGYFDY: 4.52 (2 of 3 replicates).
GFKFDDYAMH, RHSWNSGSIGYADSVK, VGRGGGYFDY: 5.05 (1 of 3 replicates).
GFTFDTYAMH, TISWNSGSIGYADSVK, VGRGGGDFDY: nd (0 of 3 replicates).
GFTFDDYAMH, GISWNSGYIRYANSVK, VGRGGGYFDY: 4.05 (1 of 3 replicates).
LFTFDDYAMH, GISWNGGSKGYADSVK, VGRGGGYFDY: 1.62 (3 of 3 replicates).
GKTFDDPAMH, GIAWNSGSIGYADSVK, VGRGGGYFDY: 4.91 (1 of 3 replicates).
GFTFDYYAMH, GMSWNSGSIGYADSVK, VHRGGGYFDY: 4.31 (1 of 3 replicates).
GFTKDDYAMH, GISWNSGSIGYADSVK, VGRGGGDLDY: nd (0 of 3 replicates).
GFTFDDYAMH, GISWNSGNIGYADSVK, VGRVGGYFDY: 3.63 (3 of 3 replicates).
GFTFDDYAMH, GICWNSGSIGYADSVK, VGRGYGYFWY: nd (0 of 3 replicates).
GPTFDDYAMH, GISWNSGSISYADSVK, VGRGKGYFDY: 5.26 (3 of 3 replicates).
GFTFDDYAMH, GIEWNSGSIGYADSVK, VGRVGGYFDY: nd (0 of 3 replicates).
GWTFDDYAMH, GISWNSGSIDYADSKK, VGRGGGYFDY: 4.72 (1 of 3 replicates).
GFTFEDYAMH, GISWNSGSIGKPDSVK, VGRGGGYFDY: nd (0 of 3 replicates).
GFTFDYYNMH, GISWNSGSIGYATSVK, VGRGGGYFDY: 3.78 (1 of 3 replicates).
GFTTDDYAMH, GISWNPSSIGYADSVK, VGRGGGYFDY: 4.14 (1 of 3 replicates).
MHTFDDYAMH, GISWNSGSIGFADSVK, VGRGGGYFDY: nd (0 of 3 replicates).
GFTFDDYAMH, GNSWNSGSIGYADSVK, VGRGGGLFDY: 4.32 (2 of 3 replicates).
GFTFDDYIMH, GISWNSDSIGYADAVK, VGRGGGYFDY: 4.80 (3 of 3 replicates).
GFTFDDYAMH, GESWNSGSIGYADSVK, VGTGGGYFDY: 4.26 (2 of 3 replicates).
GFTFDDYAMH, GISWNSGFIGDADSVK, VGRGGGYFDY: 3.91 (1 of 3 replicates).
GFTFDDYAMH, GISWNSGRIGEADSVK, VGRGGGYFDY: 5.15 (1 of 3 replicates).
GLTFDDYAMH, GILWNSGSIGYADSVK, VVRGGGYFDY: 3.71 (1 of 3 replicates).
GFTQDDYAMH, SISHNSGSIGYADSVK, VGRGGGYFDY: 3.56 (1 of 3 replicates).
GFTFDRYAMG, GISWNSGSIGYADSVK, VGRGGIYFDY: nd (0 of 3 replicates).
GFTFDDYAMH, GISWNSMSIGVADSVK, VGRGGGYFWY: 1.86 (3 of 3 replicates).
GFTFDDYAMH, GNSWNSGSIGCADSVK, VGRGGGYFDY: 4.47 (1 of 3 replicates).
GMTFDDYAMH, GITWNSGSIGYADSVK, VGRGGGYFDY: nd (0 of 3 replicates).
GFTFDDYAMH, GFSWNSGSIGWADSVK, VGRGGGYFSY: 4.14 (1 of 3 replicates).
GFTFDDYAMH, GISWNSGLIGIADSVK, VGRGGGYFDS: 3.38 (2 of 3 replicates).

Top 5 of the variants detected in all replicates, tightest first:

| CDR-H1 | CDR-H2 | CDR-H3 | log10 Kd (nM), mean | replicates with signal |
|---|---|---|---|---|
| GFKFDDYAMH | GISWNSGSIGYADHVK | VGRGGGYFDY | 0.72 | 3 of 3 |
| LFTFDDYAMH | GISWNGGSKGYADSVK | VGRGGGYFDY | 1.62 | 3 of 3 |
| GFTFDDYAMH | GISWNSMSIGVADSVK | VGRGGGYFWY | 1.86 | 3 of 3 |
| GFTFDDYAMH | GISWNSGNIGYADSVK | VGRVGGYFDY | 3.63 | 3 of 3 |
| GFTFDDYIMH | GISWNSDSIGYADAVK | VGRGGGYFDY | 4.80 | 3 of 3 |

Empty control strains, which show no peptide, gave a signal in 21% of pairings with library AAYL51; the median was 4.54 and 95% of these signals were weaker than 3.26. No background was subtracted.

Values reported by Engelhart et al. 2022, doi:10.1038/s41597-022-01779-4 (FLAb copy).